How the values were obtained:
[1] = Ratio of drug level in brain to plasma in rat at 0.25 to 2 mg/kg, iv after 30 mins; settings: 0.5 h
[2] = Ratio of drug level in brain to plasma in rat at 10 mg/kg, po after 1 hr
[3] = Ratio of drug level in brain to plasma in rat at 0.25 to 1.5 mg/kg, iv after 30 mins; settings: 0.5 h

Row | Structure (SMILES) | BPR [1] | BPR [2] | BPR [3]
1 | Cc1ccc(-n2nccn2)c(C(=O)N2CCN(c3nc4cc(Cl)ccc4o3)CC[C@H]2C)c1 [SUVOREXANT] | 0.6 | 0.7 | –
2 | C[C@@H]1CCN(c2ncc3cc(F)ccc3n2)CCN1C(=O)c1ccccc1-n1nccn1 | – | – | 0.4
